PMC5668925 (Biochemistry and Biophysics Reports, 2015)

Molecular target: T1, WT (SfTre1, S. frugiperda midgut soluble trehalase, recombinant) (Spodoptera frugiperda, UniProt Q0ZIF5)
T1 sequence (Q0ZIF5 24-587): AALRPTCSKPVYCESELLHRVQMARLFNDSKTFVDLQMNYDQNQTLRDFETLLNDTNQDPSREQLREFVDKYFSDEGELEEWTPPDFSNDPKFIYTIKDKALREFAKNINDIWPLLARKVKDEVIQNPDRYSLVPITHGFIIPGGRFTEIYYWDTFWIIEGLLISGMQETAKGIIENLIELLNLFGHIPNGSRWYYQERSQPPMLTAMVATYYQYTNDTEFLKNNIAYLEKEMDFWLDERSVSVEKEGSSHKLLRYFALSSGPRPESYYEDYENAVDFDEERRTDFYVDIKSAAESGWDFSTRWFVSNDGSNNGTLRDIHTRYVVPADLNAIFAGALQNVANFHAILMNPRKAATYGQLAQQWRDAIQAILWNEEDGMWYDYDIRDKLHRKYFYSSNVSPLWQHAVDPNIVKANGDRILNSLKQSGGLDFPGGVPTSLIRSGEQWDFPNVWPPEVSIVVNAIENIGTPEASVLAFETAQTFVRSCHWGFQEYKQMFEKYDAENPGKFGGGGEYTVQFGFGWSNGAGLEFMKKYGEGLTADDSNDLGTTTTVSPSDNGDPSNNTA
Test: Sypro Orange extrinsic fluorescence change
Type: binding
Settings: 20 mM gentiobiose; pH 6.0, 30 °C

For `OC[C@H]1O[C@@H](OC[C@H]2OC(O)[C@H](O)[C@@H](O)[C@@H]2O)[C@H](O)[C@@H](O)[C@@H]1O` (stereo partly shown) [gentiobiose], which “Sypro Orange extrinsic fluorescence change” value is on record?
The value was “WT is affected only by glucose and gentiobiose”.
